From article PMC1977344 (British Journal of Cancer, 1992)

Chains of the proteins cited; added tags and fusions are not shown.
UniProt P33535, whole entry: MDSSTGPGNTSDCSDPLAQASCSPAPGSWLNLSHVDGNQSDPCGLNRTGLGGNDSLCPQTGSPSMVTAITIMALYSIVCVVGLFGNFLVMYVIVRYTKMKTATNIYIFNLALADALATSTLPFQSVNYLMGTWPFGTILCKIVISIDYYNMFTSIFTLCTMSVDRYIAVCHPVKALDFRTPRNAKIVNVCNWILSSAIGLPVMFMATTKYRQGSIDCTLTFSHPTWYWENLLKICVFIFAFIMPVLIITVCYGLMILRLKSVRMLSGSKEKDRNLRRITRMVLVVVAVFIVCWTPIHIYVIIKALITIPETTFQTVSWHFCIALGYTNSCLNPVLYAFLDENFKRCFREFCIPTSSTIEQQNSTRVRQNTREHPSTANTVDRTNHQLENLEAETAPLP

Target: mu 1 receptor (Rattus norvegicus, UniProt P33535)
Assay: Radioligand binding, mu 1 assay (3H-DSLET displacement with DPDPE block, rat brain P2 homogenate)
Parameters: species or system Wistar rats
Settings: unlabelled ligand, Figure 1

[D-Ser2, Leu5]-enkephalin [DSLET]
affinity at mu 1 receptor relative to morphine and M6G: higher affinity than either compound
